As a reminder, the IC50 is the point on the concentration scale where inhibition reaches its midpoint. Lower therefore signals higher potency.

Amino acid sequences for entries named in this document (tags omitted). A change or cut given only in a name is not applied to a line headed by its entry.
UniProt P08253: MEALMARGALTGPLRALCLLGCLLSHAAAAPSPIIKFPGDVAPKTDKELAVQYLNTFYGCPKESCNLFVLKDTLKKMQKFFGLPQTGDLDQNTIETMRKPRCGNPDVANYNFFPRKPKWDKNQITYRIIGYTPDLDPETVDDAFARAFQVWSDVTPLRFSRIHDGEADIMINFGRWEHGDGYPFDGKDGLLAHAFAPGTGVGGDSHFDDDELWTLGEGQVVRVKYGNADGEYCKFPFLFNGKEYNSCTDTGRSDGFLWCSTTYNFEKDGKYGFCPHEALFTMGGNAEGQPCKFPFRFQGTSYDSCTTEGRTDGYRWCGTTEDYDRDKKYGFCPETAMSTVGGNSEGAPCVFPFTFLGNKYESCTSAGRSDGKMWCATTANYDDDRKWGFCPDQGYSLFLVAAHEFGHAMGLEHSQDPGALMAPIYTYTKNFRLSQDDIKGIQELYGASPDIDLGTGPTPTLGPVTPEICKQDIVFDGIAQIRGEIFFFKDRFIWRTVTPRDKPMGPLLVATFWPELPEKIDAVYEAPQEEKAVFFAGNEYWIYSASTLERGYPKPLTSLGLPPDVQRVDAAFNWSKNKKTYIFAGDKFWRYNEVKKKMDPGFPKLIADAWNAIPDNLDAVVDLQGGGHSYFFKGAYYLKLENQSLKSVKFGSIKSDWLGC

The assay concerns the target 72 kDa type IV collagenase (Homo sapiens, UniProt P08253). The experiment in a line: In vitro inhibition of matrix metalloprotease-2 (MMP-2).
In turn, `CC(C)[C@H](NS(=O)(=O)c1ccc(-c2ccc(Br)cc2)cc1)C(=O)O` showed an IC50 of 4 nM.
As for `CC(C)[C@H](NS(=O)(=O)c1ccc(-c2ccc(N)cc2)cc1)C(=O)O`, the figure is 36 nM.
In turn, `CC(C)[C@@H](NS(=O)(=O)c1ccc(-c2ccc(Br)cc2)cc1)C(=O)O` showed an IC50 of 5 nM.
As for `CC(C)[C@H](NS(=O)(=O)c1ccc(-c2ccc([N+](=O)[O-])cc2)cc1)C(=O)O`, the figure is 61 nM.

Source of the values: ChEMBL document CHEMBL1133013, “Structure-activity relationships and pharmacokinetic analysis for a series of potent, systemically available biphenylsulfonamide matrix metalloproteinase inhibitors” (J Med Chem, 2000).
